Measured values as given in PubChem BioAssay AID489007 (National Center for Advancing Translational Sciences (NCATS), 2010).
The list shows a part of the results, in another mix than the full data. Records with an inconclusive call do not appear. Activity calls are given as the source filed them. The call rests on the fitted dose curve; in most records, active means well fitted inhibition curve with a large enough effect; inconclusive means small, poorly fitted or top-dose-only effect; inactive means flat fitted curve, though single readings scatter.

Amino acid sequences for entries named in this document (tags omitted).
UniProt Q9NUW8, whole entry: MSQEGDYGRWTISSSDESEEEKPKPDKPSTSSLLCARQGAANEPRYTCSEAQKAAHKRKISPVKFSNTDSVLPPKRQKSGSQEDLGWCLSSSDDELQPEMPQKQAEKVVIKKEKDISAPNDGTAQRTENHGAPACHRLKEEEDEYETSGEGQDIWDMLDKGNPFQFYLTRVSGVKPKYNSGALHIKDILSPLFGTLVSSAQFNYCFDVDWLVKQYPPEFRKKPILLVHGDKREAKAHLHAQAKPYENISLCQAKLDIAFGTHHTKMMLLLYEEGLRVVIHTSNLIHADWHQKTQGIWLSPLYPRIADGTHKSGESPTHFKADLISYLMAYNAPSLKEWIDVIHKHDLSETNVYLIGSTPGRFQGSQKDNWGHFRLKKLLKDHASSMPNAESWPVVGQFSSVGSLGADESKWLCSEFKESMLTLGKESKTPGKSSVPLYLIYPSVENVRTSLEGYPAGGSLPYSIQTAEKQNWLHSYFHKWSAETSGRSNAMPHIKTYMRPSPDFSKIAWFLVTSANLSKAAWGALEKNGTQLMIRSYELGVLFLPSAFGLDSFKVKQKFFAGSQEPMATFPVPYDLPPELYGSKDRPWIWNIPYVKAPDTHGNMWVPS

Biological target: Tyrosyl-DNA phosphodiesterase 1 (Homo sapiens) (UniProt Q9NUW8)
Test: Confirmation Assay for Inhibitors of Tyrosyl-DNA Phosphodiesterase (TDP1); further: nearly all actives have a fitted effect of over 40% in size
Details: recombinant human TDP1 enzymatic activity, dose-response
Description: Human tyrosyl-DNA phosphodiesterase I (Tdp1) is a rational anticancer target because this enzyme is involved in the repair of DNA lesions created by the trapping of human DNA topoisomerase I (Top1) following treatment by anticancer agents such as camptothecins. Recombinant Tdp1 was expressed and purified from E. coli in the laboratory (Anthony et al, Nucleic Acids Research, 2007, Vol. 35, 4474-4484). A Tdp1 DNA substrate bearing a 5' biotin and a 3' phospho-tyrosine was obtained by custom synthesis. This oligonucleotidic DNA substrate was subsequently coupled to a fluorescein isothiocyanate (FITC) group via the free amino group present on the phospho-tyrosine. Tdp1 was screened against the NCGC small molecule library using the AlphaScreen (AS) detection method in which a streptavidin donor AS bead is bound at the 5' end and an anti-FITC AS acceptor bead is bound at the 3' end of the DNA oligonucleotidic substrate. In the presence of Tdp1, the enzyme cleaves the tyrosine-FITC group, leaving a 3' end phosphate on the DNA substrate. This cleavage reaction results in a loss of signal in AS.
This BioAssay is a confirmation of followup compounds from primary TDP1 screen (AID:485290)
NIH Molecular Libraries Probe Production Network [MLPCN] […]
3 ul of Tdp1 enzyme is dispensed to 1536-well Kalypsys black solid bottom plates. […] The detection is then performed on a PerkinElmer Envision reader.
Potency means the concentration at half of the fitted maximal effect.

| SMILES | Potency |
| --- | --- |
| [C-]#N.[C-]#N.[C-]#N.[C-]#N.[C-]#N.[C-]#N.[Fe+6].[Fe] | active: 2.51 µM |
| N#[O+].[C-]#N.[C-]#N.[C-]#N.[C-]#N.[C-]#N.[Fe+2].[Na+].[Na+] | active: 11.2 µM |
